Earlier results as cited in US6375634B1, “APPARATUS AND METHOD TO ENCAPSULATE, KILL AND REMOVE MALIGNANCIES, INCLUDING SELECTIVELY INCREASING ABSORPTION OF X-RAYS AND INCREASING FREE-RADICAL DAMAGE TO RESIDUAL TUMORS TARGETED BY IONIZING AND NON-IONIZING RADIATION THERAPY” (Oncology Innovations, Inc., priority 1997, dated 2002).

Tested on: angiogenesis
Conditions: mouse model, cited from earlier work

B1: interferon beta: interferon that physiologically opposes proangiogenic factors (protein, UniProt P01574 22-187, looked up)
Interferon beta: MSYNLLGFLQRSSNFQCQKLLWQLNGRLEYCLKDRMNFDIPEEIKQLQQFQKEDAALTIYEMLQNIFAIFRQDSSSTGWNETIVENLLANVYHQINHLKTVLEEKLEKEDFTRGKLMSSLHLKRYYGRILHYLKAKEYSHCAWTIVRVEILRNFYFINRLTGYLRN
Continuous low levels, 5,000 to 10,000 units
  effect on angiogenesis: blocks angiogenesis
Higher interferon levels
  effect on angiogenesis: ineffective

Where two headings read alike, the source gives them in different places.
